Data as given in ChEMBL document CHEMBL5728091, “3-((hetero-)aryl)-alkyl-8-amino-2-oxo-l,3-diaza-spiro-[4.5]-decane derivatives” (2020).

Sequences of proteins named here, by UniProt entry; tags and fusion partners are left off.
UniProt P41146, whole entry: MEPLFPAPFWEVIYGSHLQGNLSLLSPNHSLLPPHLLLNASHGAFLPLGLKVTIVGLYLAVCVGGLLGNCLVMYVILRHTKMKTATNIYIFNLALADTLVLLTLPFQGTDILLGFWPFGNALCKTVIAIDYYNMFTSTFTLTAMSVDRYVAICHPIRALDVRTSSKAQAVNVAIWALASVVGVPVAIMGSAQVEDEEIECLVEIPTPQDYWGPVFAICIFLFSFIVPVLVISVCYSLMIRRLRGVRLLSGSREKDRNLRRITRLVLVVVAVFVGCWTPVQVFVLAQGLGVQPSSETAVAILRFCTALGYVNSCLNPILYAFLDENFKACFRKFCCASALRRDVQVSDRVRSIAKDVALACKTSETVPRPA

Target: Nociceptin receptor (Homo sapiens, UniProt P41146)
Assay: Receptor Binding Assay: The hNOP receptor binding assay was performed as homogeneous SPA-assay (scintillation proximity assay) using the assay buffer 50 mM TRIS-HCl. 10 mM MgCl2. 1 mM EDTA (pH 7.4). The final assay volume (250 ul/well) included 0.5 nM of [leucyl-3H]nociceptin as ligand (PerkinElmer Life Sciences. Inc. Boston. Mass. USA). and either test compound in dilution series or 1 uM unlabell

SMILES	Ki [nM]
CN(C)[C@]1(c2ccccc2)CC[C@]2(CC1)CN(Cc1cccc(S(C)(=O)=O)c1)C(=O)N2CC1CCC1	53.7
CN(C)[C@]1(c2ccccc2)CC[C@]2(CC1)CN(Cc1cccc(C3CC3)c1)C(=O)N2	1830
COc1ccc(CN2C[C@]3(CC[C@](c4ccccc4)(N(C)C)CC3)N(CC3CCCO3)C2=O)cc1 (stereo partly drawn)	310
